The entries are a selection whose mix differs from that of the whole data set. Activity calls are given as the source filed them.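 The calls were made as follows: active = fluorescence ratio above 2.44, which is 1 plus 3 SD of all ratios; inconclusive = signal too bright to measure linearly, ratio around 10 or more; inactive = fluorescence ratio below 2.44.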
Test: intrinsic compound fluorescence with Jurkat cells – cell-based, flow cytometry, artefact control for VLA-4 allosteric ligand project, primary screen (AID 576);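 also: green fluorescence of cells measured with 488 nm excitation and 530 nm emission; tested at 10 µM compound in the well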
Details: compound autofluorescence, stronger effect = higher value, 1 = vehicle-only cell background

Compound	fluorescence ratio
CCc1nc2c(n1)c1c(non1O)c1c2no[n+]1[O-]	inactive: 2
O=P(Nc1nccs1)(c1ccccc1)c1ccccc1	inactive: 1.08
Cc1nn(-c2ccccc2)c2c1P(=O)(N1CCOCC1)N(C)C(c1ccccc1)=N2 (configuration not stated)	inactive: 1.1
Clc1n[nH]nc1-c1nn[nH][15n]1	inactive: 1.04
CCOP1(=S)c2c(C)nn(CCC#N)c2N=C(c2ccccc2F)N1C (configuration not stated)	inactive: 0.91
COP1(=S)c2c(C)nn(CCC#N)c2N=C(c2ccc(F)cc2)N1C (configuration not stated)	inactive: 1.03
O=C(COc1ccccc1)OC1CN2CCC1CC2 (configuration not stated)	inactive: 1.06
